This is a selection; strong and weak results do not stand in their true shares. Some of these compounds have results that are not shown, active ones among them. Activity calls are given as the source filed them.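 Rule for the calls: active = mean inhibition of at least 75% with every replicate also reaching 75%; inconclusive = mean inhibition at least 75% but some replicate below; inactive = mean inhibition below 75%.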
Assay: Shn3 3'UTR reporter decrease in osteoblasts – cell-based, Clone20 osteoblasts, firefly luciferase, set 2, Schnurri-3 inhibitor project, primary screen (AID 588674);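 note: 0% = median of neutral control wells and 100% = pilot-screen positive control compound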
Conditions: Clone20 osteoblast Shn3 3'UTR firefly luciferase, 24 h; at 12.5 µM; active compounds read high

| SMILES | inhibition |
| --- | --- |
| Cc1ccccc1C(=O)NCC1(N2CCCCC2)CCCCC1 | inactive: 9.44% |
| CN(C)C1CCCC1OC(=O)C(O)(c1ccccc1)c1ccccc1 (stereo unspecified) | inactive: 17.9% |
| CN(C)c1ccc(C(=O)NCC2(N(C)C)CCCCC2)cc1 | inactive: -15.5% |
| Cc1cc(C(=O)NCC2(N3CCCCC3)CCCCC2)ccc1[N+](=O)[O-] | inactive: -9.22% |
| CCN1CCCC(OC(=O)C2(O)c3ccccc3C=Cc3ccccc32)C1 (stereo unspecified) | inactive: -8.22% |
| O=C(NCC1(N2CCCCC2)CCCCC1)c1cccc(Br)c1 | inactive: -2.62% |
| COc1ccc(C(=O)NCC2(N(C)C)CCCCC2)cc1 | inactive: -4.94% |
| C=CCN1CCN(CCOC(=O)C(O)(c2ccccc2)c2ccccc2)CC1 | inactive: -1.64% |
| O=C(NCC1(N2CCCCC2)CCCCC1)c1cc(F)c(F)cc1Cl | inactive: 3.28% |
| CN1[C@@H]2CC[C@H]1CC(OC(=O)C(O)(c1ccccc1)c1ccccc1)C2 (stereo partly specified) | inactive: -5.45% |
| O=C(NCC1(N2CCCCC2)CCCCC1)c1cc([N+](=O)[O-])ccc1Cl | inactive: -3.74% |
| Cc1ccc(C(=O)NCC2(N3CCCCC3)CCCCC2)cc1 | inactive: -8.77% |
| CC(C)N1C(=O)CC2(CCN(CCOC(=O)C(O)(c3ccccc3)c3ccccc3)CC2)C1=O | inactive: 1.35% |
| CCN(CC)CC(C)C(C)OC(=O)C(O)(c1ccccc1)c1ccccc1 (stereo unspecified) | inactive: 3.22% |
| COc1cc(SC)ccc1C(=O)NCC1(N(C)C)CCCCC1 | inactive: 7.16% |
| O=C(OC1CN2CCC1CC2)C(CO)(c1ccccc1)c1ccccc1 (stereo unspecified) | inactive: 16.9% |
| CN(C)c1cccc(C(=O)NCC2(N(C)C)CCCCC2)c1 | inactive: -15.1% |
| CC(C)Oc1ccc(C(=O)NCC2(N(C)C)CCCCC2)cc1 | inactive: -15.3% |
| O=C(OCCN1CCCC1)C(O)(c1ccccc1)c1ccccc1 | inactive: 9.75% |
| COc1ccc(Br)c(C(=O)NCC2(N3CCCCC3)CCCCC2)c1 | inactive: 4.45% |
| C=C(C)C#CC(O)(C(=O)OC1CCN(C)CC1)c1ccccc1 (stereo unspecified) | inactive: -7.83% |
| COc1cc(C(=O)NCC2(N(C)C)CCCCC2)c([N+](=O)[O-])cc1OC | inactive: -9.36% |
| CN(C)C1(CNC(=O)c2ccc(Br)cc2)CCCCC1 | inactive: 7.79% |
| O=C(NCC1(N2CCCCC2)CCCCC1)c1cccc(Cl)c1 | inactive: -1.36% |
| COc1cccc(C(=O)NCC2(N3CCCCC3)CCCCC2)c1 | inactive: 9.57% |
| COc1ccc(Cl)cc1C(=O)NCC1(N(C)C)CCCCC1 | inactive: -0.887% |

Source: PubChem BioAssay AID588674 (Broad Institute, 2011)
